Measured values published in ChEMBL document CHEMBL1149641, “Functionalization of the 6,14-bridge of the orvinols. Part 3: preparation and pharmacological evaluation of 18- and 19-hydroxyl substituted orvinols” (2007).

Sequences of proteins named here, by UniProt entry; tags and fusion partners are left off.
UniProt P41143, whole entry: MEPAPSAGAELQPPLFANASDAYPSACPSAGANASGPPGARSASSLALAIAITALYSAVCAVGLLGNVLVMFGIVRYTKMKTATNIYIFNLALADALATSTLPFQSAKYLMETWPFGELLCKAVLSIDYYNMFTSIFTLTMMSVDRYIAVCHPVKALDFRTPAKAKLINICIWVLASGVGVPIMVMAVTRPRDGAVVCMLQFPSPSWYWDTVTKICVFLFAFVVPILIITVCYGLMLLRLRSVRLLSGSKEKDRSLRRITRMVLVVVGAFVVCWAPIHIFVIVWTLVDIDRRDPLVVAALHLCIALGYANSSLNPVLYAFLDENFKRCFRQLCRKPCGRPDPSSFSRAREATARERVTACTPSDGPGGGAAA
UniProt P41145, whole entry: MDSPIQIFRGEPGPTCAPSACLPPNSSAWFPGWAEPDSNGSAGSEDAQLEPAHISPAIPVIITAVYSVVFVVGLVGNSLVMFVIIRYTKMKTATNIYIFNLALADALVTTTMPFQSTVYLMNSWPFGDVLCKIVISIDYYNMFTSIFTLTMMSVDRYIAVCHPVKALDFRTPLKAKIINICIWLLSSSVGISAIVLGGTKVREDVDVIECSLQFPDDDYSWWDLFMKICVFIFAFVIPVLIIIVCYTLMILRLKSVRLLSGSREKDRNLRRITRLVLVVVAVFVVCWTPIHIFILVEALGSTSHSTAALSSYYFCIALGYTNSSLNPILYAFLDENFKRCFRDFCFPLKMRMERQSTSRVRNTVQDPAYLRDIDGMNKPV

What was measured:
[1] = molecular target: T1, Delta-type opioid receptor (Homo sapiens, UniProt P41143); assay: Displacement of [3H]DPDPE from cloned delta opioid receptor expressed in CHO cell membrane
[2] = molecular target: T2, Kappa-type opioid receptor (Homo sapiens, UniProt P41145); assay: Displacement of [3H]U-69593 from cloned kappa opioid receptor expressed in CHO cell membrane
[3] = molecular target: T1, Delta-type opioid receptor; assay: Agonist activity at human delta opioid receptor expressed in CHO membrane by [35S]GTPgammaS binding assay
[4] = molecular target: T2, Kappa-type opioid receptor; assay: Agonist activity at human kappa opioid receptor expressed in CHO membrane by [35S]GTP-gamma-S binding assay

Row | SMILES | Ki [1] | Ki [2] | EC50 [3] | EC50 [4]
1 | CO[C@]12CC(O)[C@@]3(C[C@@H]1[C@@H](C)O)[C@H]1Cc4ccc(O)c5c4[C@@]3(CCN1C)[C@H]2O5 (stereo partly specified) | 120 nM | 230 nM | 57 nM | 720 nM
2 | CO[C@]12C(O)C[C@@]3(C[C@@H]1[C@H](C)O)[C@H]1Cc4ccc(O)c5c4[C@@]3(CCN1C)[C@H]2O5 (stereo partly specified) | 28 nM | 64 nM | 21 nM | 210 nM
3 | CO[C@]12CC(O)[C@@]3(C[C@@H]1[C@H](C)O)[C@H]1Cc4ccc(O)c5c4[C@@]3(CCN1C)[C@H]2O5 (stereo partly specified) | 110 nM | 170 nM | 210 nM | 520 nM
4 | CO[C@]12C(O)C[C@@]3(C[C@@H]1[C@@H](C)O)[C@H]1Cc4ccc(O)c5c4[C@@]3(CCN1C)[C@H]2O5 (stereo partly specified) | 25 nM | 26 nM | 88 nM | 240 nM
